Results from paper PMC9795464 (JACS Au, 2022).

Target: T1, FXR ligand-binding domain (LBD) (Homo sapiens, UniProt Q96RI1)
T1 sequence (Q96RI1 243-472 isoform Q96RI1-2): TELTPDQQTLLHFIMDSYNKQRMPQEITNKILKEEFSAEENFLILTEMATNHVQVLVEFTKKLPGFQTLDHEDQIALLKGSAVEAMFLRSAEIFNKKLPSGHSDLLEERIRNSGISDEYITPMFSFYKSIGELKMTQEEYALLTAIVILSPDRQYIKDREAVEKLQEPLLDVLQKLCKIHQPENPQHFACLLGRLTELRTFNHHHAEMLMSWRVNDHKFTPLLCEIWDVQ
Experiment: AlphaScreen coactivator recruitment assay
Type: biochemical
Details: gradient GS; OCA 1 μM, FA 10 μM; dose-dependent

effect on OCA- and FA-induced recruitment of SRC2-3 to FXR: blocked
Substance: Guggulsterone E&Z [GS]
